Measured values as given in patent publication US6353015B1, “Method of treating neurodegenerative disorders” (St. Elizabeth's Medical Center, priority 1998, dated 2002).

System: AF64A-treated rats
Test: Active avoidance test in two-chamber shuttle box (Example 5)
Format: in vivo, rat
Settings: AF64A alone 3 nmol/3 μl i.c.v., solvent orally; mean ± SEM

Substance: ethylcholine aziridinium ion
- Correct responses, % Learning test: 37.4 ± 9.8%
- Correct responses, % Retention test: 43.8 ± 8.1%
